Assay results: paper PMC3265452 (PLoS Neglected Tropical Diseases, 2012)
Structures can show the parent of a compound that is named as a salt.

Chains of the proteins cited; added tags and fusions are not shown. Residues count along the entry.
UniProt H6D5H2, 1-476: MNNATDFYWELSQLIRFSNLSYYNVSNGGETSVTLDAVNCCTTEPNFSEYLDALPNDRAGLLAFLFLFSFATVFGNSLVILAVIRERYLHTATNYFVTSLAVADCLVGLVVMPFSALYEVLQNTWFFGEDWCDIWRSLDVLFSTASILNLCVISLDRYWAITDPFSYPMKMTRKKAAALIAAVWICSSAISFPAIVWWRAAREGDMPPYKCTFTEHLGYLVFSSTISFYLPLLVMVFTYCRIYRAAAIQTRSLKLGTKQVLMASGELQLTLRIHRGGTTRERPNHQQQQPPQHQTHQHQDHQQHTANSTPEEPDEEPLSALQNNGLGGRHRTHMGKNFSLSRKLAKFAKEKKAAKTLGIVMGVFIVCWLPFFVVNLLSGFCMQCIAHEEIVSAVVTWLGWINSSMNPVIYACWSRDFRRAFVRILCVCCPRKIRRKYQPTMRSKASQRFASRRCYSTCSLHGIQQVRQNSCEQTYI
UniProt P21728, whole entry: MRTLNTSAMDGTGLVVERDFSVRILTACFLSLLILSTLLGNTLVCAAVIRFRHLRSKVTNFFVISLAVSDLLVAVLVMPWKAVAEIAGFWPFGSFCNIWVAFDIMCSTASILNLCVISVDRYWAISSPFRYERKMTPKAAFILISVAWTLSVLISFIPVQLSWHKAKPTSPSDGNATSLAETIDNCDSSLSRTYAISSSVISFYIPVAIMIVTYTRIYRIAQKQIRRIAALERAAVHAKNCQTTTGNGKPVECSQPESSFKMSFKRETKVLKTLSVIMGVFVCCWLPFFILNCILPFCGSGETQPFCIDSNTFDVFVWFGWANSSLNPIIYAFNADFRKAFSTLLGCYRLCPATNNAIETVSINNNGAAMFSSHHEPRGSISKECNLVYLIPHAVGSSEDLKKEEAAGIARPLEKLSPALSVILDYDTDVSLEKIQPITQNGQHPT

Key:
[1] = target: T1, AaDOP2 (Aedes aegypti, UniProt H6D5H2); assay: AaDOP2 antagonist screen of the LOPAC1280 library (HEK-CRELuc-Aadop2 cells, luminescence); conditions: for inhibition at 10 µM: read-out: % of the SCH23390 effect (percent inhibition of receptor response relative to the SCH23390 control)
[2] = target: T1, AaDOP2; assay: cell-based
[3] = target: human D1 dopamine receptor (hD1) (Homo sapiens, UniProt P21728); assay: cAMP accumulation secondary assay, hD1-expressing cells
[4] = target: T1, AaDOP2; conditions: from IC50 values at AaDOP2 and hD1

Row | Compound | Compound effect (percent receptor signaling in presence of test compound, relative lux units relative to the SCH23390 control) [1] | inhibition at 10 µM [1] | further results
1 | CN1[C@@H]2CC[C@H]1C[C@@H](OC(c1ccccc1)c1ccccc1)C2 [Compound 188, Benztropine mesylate] | 11 | 89% | 
2 | CC(C)(C)[C@]1(O)CCN2C[C@H]3c4ccccc4CCc4cccc(c43)[C@@H]2C1 [Compound 440, (+)-Butaclamol hydrochloride, reference compound] | 14 |  | IC50 [2]: 480 ± 33 nM; % of the SCH23390 effect (percent inhibition of receptor response relative to the SCH23390 control) [1]: 87%
3 | OCCN1CCN(CCCN2c3ccccc3Sc3ccc(C(F)(F)F)cc32)CC1 [Compound 520, Fluphenazine dihydrochloride] | 18 | 82% | 
4 | OCCN1CCN(CC/C=C2/c3ccccc3Sc3ccc(C(F)(F)F)cc32)CC1 [Compound 541] | 12 |  | IC50 [3]: 11 ± 1.9 nM; Relative fold selectivity for AaDOP2 vs. hD1 [4]: 0.55 fold
5 | CN(C)CCCN1c2ccccc2CCc2ccccc21 [Compound 655, Imipramine hydrochloride] | 4 | 96% | 
6 | CCN(CC)CC(=O)Nc1c(C)cccc1C [Compound 707, Lidocaine hydrochloride] | 86 |  | 
7 | Cc1nc2n(c(=O)c1CCN1CCC(c3noc4cc(F)ccc34)CC1)CCCC2 [Compound 1068, Risperidone] | 17 | 83% | 
8 | Cl.NCCc1ccc(O)cc1 [Compound 1162, 4-Hydroxyphenethylamine hydrochloride] | 121 |  | 
9 | (±)-AMT hydrochloride [Compound 113] | 103 |  | 
10 | L-Methionine sulfoximine [Compound 776] | 103 |  | 
